Laboratory results: ChEMBL document CHEMBL1828586 (J Med Chem, 2011)

Assay: Half life in human liver microsomes
Assay type: ADME, Microsome

Compound | half-life
COc1cc(/C(=N\N)c2csc(-c3ccccc3)n2)cc(OC)c1OC | 55 min
COc1cc(/C(=N/N)c2csc(-c3ccccc3)n2)cc(OC)c1OC | 55 min
